Measurements from ChEMBL document CHEMBL1152107, “Structure-activity relationships study at the 3-N position of paclitaxel-part 1: Synthesis and biological evaluation of the 3-(t)-butylaminocarbonyloxy bearing paclitaxel analogs” (Bioorg Med Chem Lett, 1997).

Chains of the proteins cited; added tags and fusions are not shown.
UniProt P02550, whole entry, looked up: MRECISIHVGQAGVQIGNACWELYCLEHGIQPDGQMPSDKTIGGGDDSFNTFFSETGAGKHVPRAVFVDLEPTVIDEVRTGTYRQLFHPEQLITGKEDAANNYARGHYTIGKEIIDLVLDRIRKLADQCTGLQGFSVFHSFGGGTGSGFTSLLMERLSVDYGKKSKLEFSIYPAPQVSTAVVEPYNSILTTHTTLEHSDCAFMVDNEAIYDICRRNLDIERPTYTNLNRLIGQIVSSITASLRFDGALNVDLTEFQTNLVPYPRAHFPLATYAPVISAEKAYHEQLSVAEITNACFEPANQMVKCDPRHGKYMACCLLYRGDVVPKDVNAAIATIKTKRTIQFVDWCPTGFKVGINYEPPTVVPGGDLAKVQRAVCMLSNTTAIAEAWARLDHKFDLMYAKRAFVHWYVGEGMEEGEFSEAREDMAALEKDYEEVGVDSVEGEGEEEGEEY

Molecular target: Tubulin alpha chain (Sus scrofa) (UniProt P02550)
Experiment: The compound was evaluated in vitro in a tubulin polymerization assay, activity expressed as potency of compound relative to Paclitaxel.
Format: functional

Work on `CC(=O)O[C@H]1C(=O)[C@@]2(C)[C@H]([C@H](OC(=O)c3ccccc3)[C@]3(O)C[C@H](OC(=O)[C@H](O)[C@@H](NC(=O)c4ccccc4)c4ccccc4)C(C)=C1C3(C)C)[C@]1(OC(C)=O)CO[C@@H]1C[C@@H]2O` [PACLITAXEL] yielded a Ratio of 1.
